Compounds with a hit are over-represented: about 2.2% of the library has one in this group of screens.
B2AR arrestin: agonists driving beta-arrestin recruitment to human beta2-adrenergic receptor; P07550; actives 0.02% (n = 330,000); Potency, µM (top dose mostly 46.1 µM), hits mostly activators; AID 492947; beta-arrestin recruitment to beta2AR, cell-based reporter; also: nearly all actives have a fitted effect of over 65% in size
Nrf2 ARE act: Nrf2 pathway activation | AREc32 ARE-luciferase reporter (MCF7-derived line), luminescence, 24 h | actives 0.31% (n = 410,000) | Potency, µM (highest dose often 46.1 µM), most hits filed as activators | AID 624171; also: nearly all actives have a fitted effect of over 65% in size
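ARE activation measured as luciferase luminescence (Steady-Glo, 30 min RT) in AREc32_Fluc cells after 24 hr compound exposure at 37 deg C, 5% CO2; cells seeded overnight at 1000/well in OPTI-MEM, 5% FBS.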
A549 tox-1: A549 cytotoxicity, counter-screen for Nrf2 inhibitors; A549 ARE-Fluc cells, CellTiter-Fluor viability, 18-24 h; Potency, µM (series often up to 46 µM), actives largely listed as inhibitors; actives 0.16% (n = 390,000); AID 504648
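A549 ARE-Fluc cells in 5% FBS OPTI-MEM, 5000 cells/well, rested 2 h then exposed to compounds in concentration-response for 18-24 h at 37 °C. Viability by CellTiter-Fluor fluorescence (Ex 405/Em 525) after 30 min; luciferase luminescence (BugLite, 15 min, RT) read afterwards.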
miR-21 FLuc: miR-21 reporter, rising signal | HeLa miR-21 FLuc reporter, luciferase, 48 h | Potency, µM (top dose mostly 38.3 µM) | 340,000 tested, under 10 active | AID 2288; active = well fitted rising curve with a large enough effect; inconclusive = small, poorly fitted or top-dose-only effect; inactive = no such curve, though single readings can be large or run the other way;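 further: miR-21 action dims this reporter so a rising signal means less miR-21 action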
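HeLa cells endogenously expressing miR-21, stably carrying CMV-driven firefly luciferase with a downstream miR-21 binding site, 2000 cells/well. Titrations up to approximately 40 uM, 48 hours; luciferase luminescence read.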
Nrf2 inh: inhibitors of Nrf2 signaling | Potency, µM (highest dose often 46 µM), hits mostly inhibitors | actives 2.1% (n = 360,000) | A549 ARE-Fluc reporter, luciferase luminescence, 18-24 h | AID 504444; also: nearly all actives have a fitted effect of over 60% in size
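A549 ARE_Fluc cells (5000/well, 5% FBS OPTI-MEM) pre-incubated 2 h, then treated with compounds 18-24 h at 37C/5% CO2 in concentration-response. CellTiter-Fluor viability read first; BugLite luciferase luminescence after 15 min at room temperature gives Nrf2 activity.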
FLuc enzyme inh: counter-screen for Nrf2 inhibitors: firefly luciferase enzyme inhibition. Potency, µM (series often up to 57.5 µM), actives largely listed as inhibitors. purified firefly luciferase, luminescence inhibition. AID 720522. shares compounds with Nrf2 inh. actives 4% (n = 1,400); also: nearly all actives have a fitted effect of over 65% in size
A549 tox-2: counter-screen for Nrf2 inhibitors: cytotoxicity in A549 ARE cells; shares compounds with Nrf2 inh; A549 ARE-Fluc cells, cytotoxicity counterscreen; Potency, µM (doses to about 46.1 µM), actives largely listed as inhibitors; actives 2% (n = 1,400); AID 720523;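 also: cells exposed to compounds for 18 to 24 hours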
Nrf2 ARE inh: reduces Nrf2 ARE reporter signal in A549 cells | shares compounds with Nrf2 inh | actives 74% (n = 1,400) | Potency, µM (doses to about 46.1 µM), actives largely listed as inhibitors | AID 720524 | A549 ARE-firefly luciferase reporter, luminescence; also: nearly all actives have a fitted effect of over 65% in size
Of the large screens only hits and unclear results are named; the others gave an inactive call (follow-up assays come after a bar, where shown). Unless noted, calls follow the shape of the dose curve; as a rule, active = well fitted curve in the direction sought with a large enough effect; inconclusive = small, poorly fitted or top-dose-only effect, or another doubt; inactive = no such curve, though single readings can be large; an effect the other way counts as inactive or inconclusive.

CCCS(=O)(=O)Nc1cc2c(cc1NCc1ccccc1)n(C)c(=O)n2C	Nrf2 ARE act inconclusive (no result: B2AR arrestin)
Cc1ccc(NC(=O)Cn2c(=O)n(CCC(=O)NCc3ccccc3Cl)c(=O)c3ccccc32)cc1	Nrf2 inh inconclusive (no result: B2AR arrestin)
COc1ccc(C(=O)N/N=C(\C)c2ccccn2)cc1OC	Nrf2 ARE act inconclusive, A549 tox-1 inconclusive, Nrf2 inh 5.2µM | FLuc enzyme inh inactive | A549 tox-2 inactive
Cc1ccc(-n2nc3c(=O)n(C(C)C(=O)NCc4ccc(OC(C)C)cc4)nc(C)c3c2C)cc1 (centres undefined)	miR-21 FLuc inconclusive, Nrf2 inh 1.8µM (no result: B2AR arrestin) | FLuc enzyme inh inactive | A549 tox-2 inactive | Nrf2 ARE inh 8.2µM
CCCN1CCN(CC2=C(C(=O)OCC)C(c3ccc(OC(C)C)cc3)NC(=O)N2)CC1 (centres undefined)	none (no result: B2AR arrestin)
CCOc1ccc(-c2nc(Cn3c(=O)cc(-c4ccccc4)c4c(C)nn(C)c43)c(C)o2)cc1	Nrf2 inh 5.8µM (no result: B2AR arrestin) | FLuc enzyme inh inactive | A549 tox-2 inactive | Nrf2 ARE inh inactive
CCn1nc(C)c(NC(=O)/C=C/c2cnn(C)c2C)c1C	none
CCn1ncc(/C=C/C(=O)Nc2c(C)nn(Cc3ccc(Cl)cc3Cl)c2C)c1C	A549 tox-1 inconclusive, Nrf2 inh 5.8µM | FLuc enzyme inh inactive | A549 tox-2 inactive
CCOc1ccccc1NC(=O)CN1C(=O)CC(c2ccco2)Sc2ccccc21 (centres undefined)	none (no result: B2AR arrestin)
O=C(Cn1cnc2onc(-c3ccc(F)cc3)c2c1=O)N1CCN(c2ccc(F)cc2)CC1	Nrf2 inh inconclusive (no result: B2AR arrestin)
CCCCc1nnc(SCc2cc(=O)c3cc(F)ccc3[nH]2)n1C	none (no result: B2AR arrestin, Nrf2 inh)
CCCC(C)NC(=O)COc1ccc(Sc2ccc(OCC(=O)NC(C)CCC)cc2)cc1 (centres undefined)	Nrf2 inh 3.7µM | FLuc enzyme inh inactive | A549 tox-2 inactive
CC(C)CNC(=O)COc1ccc(Sc2ccc(OCC(=O)NCC(C)C)cc2)cc1	Nrf2 inh inconclusive
Cc1c(C(=O)N2CCN(Cc3ccc4c(c3)OCO4)CC2)sc2ncnc(N3CCN(c4ccccc4)CC3)c12	Nrf2 inh 1.2µM | FLuc enzyme inh inactive | A549 tox-2 inactive | Nrf2 ARE inh 7.3µM
CC1=Nc2cc(C(=O)NC3CCCCC3)ccc2Sc2ccc(Cl)cc21	none (no result: B2AR arrestin, Nrf2 inh)
CC1=Nc2cc(C(=O)NCCc3ccc(Cl)cc3)ccc2Sc2ccc(C)cc21	A549 tox-1 inconclusive, Nrf2 inh 5.2µM (no result: B2AR arrestin) | FLuc enzyme inh inactive | A549 tox-2 inactive | Nrf2 ARE inh 21µM
COc1cc(C(CCN2CCCC2)c2c(OC)cc(OC)c3c2OC(=O)CC3c2ccc(N(C)C)cc2)cc(OC)c1OC (centres undefined)	none (no result: B2AR arrestin, Nrf2 ARE act, miR-21 FLuc)
CCN(CC(=O)Nc1c(F)cccc1F)C(=O)c1cc(S(=O)(=O)N(CC)CC)ccc1N1CCCCC1	Nrf2 inh 8.2µM | FLuc enzyme inh inactive | A549 tox-2 inactive | Nrf2 ARE inh 10µM
COc1ccc(-c2cn3nc(SCC(=O)Nc4cccc(C)c4C)ccc3n2)cc1	none (no result: B2AR arrestin, Nrf2 inh)
CC(C)CCNC(=O)C(c1ccncc1)N(Cc1cccs1)C(=O)Cn1nnc(-c2ccc(F)cc2)n1 (centres undefined)	A549 tox-1 inconclusive, Nrf2 inh 2.6µM | FLuc enzyme inh inactive | A549 tox-2 inconclusive | Nrf2 ARE inh 1.5µM
CC(C)CCNC(=O)C(c1ccco1)N(CCCO)C(=O)Cn1nnc(-c2ccc(F)cc2)n1 (centres undefined)	none
O=S(=O)(N/N=C1/CC(c2ccccc2)Oc2ccccc21)c1ccc(Br)cc1 (centres undefined)	A549 tox-1 inconclusive, Nrf2 inh 8.2µM | FLuc enzyme inh inconclusive | A549 tox-2 inactive
